Our source for the inhibition values is ChEMBL document CHEMBL6127053, “Discovery of orally bioavailable phosphonate prodrugs of potent ENPP1 inhibitors for cancer treatment” (Eur J Med Chem, 2024).

The source made the active and inactive calls. No cut-off for these calls is given here.

The assay deals with T1, Ectonucleotide pyrophosphatase/phosphodiesterase family member 1 (Homo sapiens) (UniProt P22413).
T1 sequence (whole entry): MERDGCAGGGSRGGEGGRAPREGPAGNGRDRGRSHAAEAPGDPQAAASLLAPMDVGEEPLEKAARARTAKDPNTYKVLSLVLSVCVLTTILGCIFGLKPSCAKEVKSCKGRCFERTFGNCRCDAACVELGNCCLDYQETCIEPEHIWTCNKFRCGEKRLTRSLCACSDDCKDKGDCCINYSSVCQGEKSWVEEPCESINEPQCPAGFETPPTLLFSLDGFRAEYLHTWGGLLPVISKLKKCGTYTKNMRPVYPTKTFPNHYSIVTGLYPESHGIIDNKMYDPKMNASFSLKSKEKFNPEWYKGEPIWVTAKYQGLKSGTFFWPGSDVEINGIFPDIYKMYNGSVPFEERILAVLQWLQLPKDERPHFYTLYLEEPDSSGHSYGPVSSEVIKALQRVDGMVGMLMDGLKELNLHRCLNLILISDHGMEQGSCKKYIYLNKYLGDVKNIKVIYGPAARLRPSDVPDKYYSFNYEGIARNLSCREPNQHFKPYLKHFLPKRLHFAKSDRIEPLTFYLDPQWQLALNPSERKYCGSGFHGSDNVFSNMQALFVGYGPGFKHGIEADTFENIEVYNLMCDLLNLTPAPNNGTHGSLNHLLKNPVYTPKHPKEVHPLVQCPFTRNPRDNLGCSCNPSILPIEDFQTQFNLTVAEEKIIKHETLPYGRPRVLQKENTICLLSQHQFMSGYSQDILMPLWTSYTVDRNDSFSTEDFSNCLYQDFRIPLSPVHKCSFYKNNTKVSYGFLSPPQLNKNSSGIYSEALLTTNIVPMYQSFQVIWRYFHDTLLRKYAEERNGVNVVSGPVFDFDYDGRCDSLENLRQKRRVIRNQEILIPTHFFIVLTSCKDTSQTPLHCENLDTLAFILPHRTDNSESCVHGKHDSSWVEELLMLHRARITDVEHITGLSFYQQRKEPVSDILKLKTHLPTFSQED
The conditions noted are these: THP-1, dose 200.0 nM, time 20.0 hrs.

Turning to `COc1cccc2c(N3CCC(CCP(=O)(O)O)CC3)ncnc12`, the inhibition result was “Active”.
